Laboratory results from patent US7094873 (University of Texas, dated 2006).

Key:
[1] = target: T1, 35S-labeled, in vitro translated hCHIP (43-kD S-tagged fusion from vector pCITE-4a) (human, UniProt Q9UNE7 1-303, 35S-methionine labeled); assay: GST on beads with 35S-labeled hCHIP, autoradiography
T1 construct: Made in rabbit reticulocyte lysate; not shown: S-tag and vector-encoded residues of pCITE-4a
T1 sequence: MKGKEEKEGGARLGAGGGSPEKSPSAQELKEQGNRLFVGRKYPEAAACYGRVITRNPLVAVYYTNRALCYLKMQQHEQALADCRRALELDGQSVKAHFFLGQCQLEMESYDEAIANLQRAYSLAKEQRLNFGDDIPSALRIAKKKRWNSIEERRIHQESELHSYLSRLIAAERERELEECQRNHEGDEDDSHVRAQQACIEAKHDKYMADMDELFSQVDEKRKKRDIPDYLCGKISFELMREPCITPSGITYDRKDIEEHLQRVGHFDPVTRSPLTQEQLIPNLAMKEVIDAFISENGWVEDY

[2] = target: Human Hsp70 (Stressgen) (human); assay: GST pulldown on glutathione-Sepharose beads, immunoblot
[3] = target: T2, Bovine Hsc70 (Stressgen) (bovine); assay: as above
T2 construct: also called purified Hsc70

Measured: binding result

B1: GST alone (plasmid pGEX-2T) (other, UniProt P08515 1-218, looked up)
chain: MSPILGYWKIKGLVQPTRLLLEYLEEKYEEHLYERDEGDKWRNKKFELGLEFPNLPYYIDGDVKLTQSMAIIRYIADKHNMLGGCPKERAEISMLEGAVLDIRYGVSRIAYSKDFETLKVDFLSKLPEMLKMFEDRLCHKTYLNGDHVTHPDFMLYDALDVVLYMDPMCLDAFPKLVCFKKRIEAIPQIDKYLKSSKYIAWPLQGWQATFGGGDHPPK
notes: Control protein; also called GST itself
no binding: all assays above
